US10285963B2, “Combination of metabolic bio-energetic and nutra-epigentic regulators, nutraceutical compounds in conventional and nanotechnologies combination to revert and prevent the chronic damage accelerated cellular senescence produced by diabetes and other degenerative chronic complex diseases” (priority 2015, dated 2019)

Test system: Artemia salina nauplii
Experiment: Artemia salina nauplii toxicity assay
Conditions: any of the tested concentrations (62.5-1000 ppm), 24 h
From the text: Artemia salina is a crustacean sensitive to a wide range of compounds with biological activity and very different chemical structures. Michael et al. (Michael A. S. et al in Science, 1956, 123: 464) and Vanhaecke et al. (Vanhaecke et al in Ecotoxicol Environ Saf 1981, 5:382) proposed its use for toxicity testing. It is a test that allows conducting practically and economically toxicity studies of different nature substances. […] This model is accepted by the FDA (Food Drug Administration) and EPA (Environmental Protection Agency in 2002), as a test for evaluating the toxicity and ecotoxicity of pharmaceutical and/or food products.
In an Artemia salina hatcher, 0.5 g cysts of Artemia salina were hatched in artificial seawater at 37 g/L at a temperature of 27° C. with constant aeration for 24 h. In every 5 wells out of a 96-well plate, 0.1 mL of artificial seawater (37 g/L) was applied with a single-channel pipette with ten nauplii, separated from the hatcher and counted one by one to achieve an exact separation of 10 nauplii. […] After incubation period, A. salina nauplii alive and dead were counted with a stereoscopic microscope and % mortality was determined. Toxicity was expressed as percent mortality of A. salina nauplii: 0-10% non-toxic, moderately toxic 11-50%, 51-90% highly toxic and 100% extremely toxic, considering the Gualdron et al, scale. […]

N[C@@H](CS)C(=O)O [cysteine]
toxicity expressed as percent mortality of A. salina nauplii: toxicity free
